Some targets named below: HLA-A*0301 (Homo sapiens, UniProt P04439); HLA-DR DRB1*1501 (DR15) (Homo sapiens, UniProt P01903+P01911); HLA-DR DRB1*0301 (DR3) (Homo sapiens, UniProt P01903+P01911, A100K/A102G/A103R/A169T/F55Y/I96L/K41T/L162R/M171V/P40S/Q125H/Q178H/Q39Y/R42S/S66N/T106N/T262R/W38E/Y61H); HLA-DR DRB1*0802 (DR8) (Homo sapiens, UniProt P01903+P01911, A100R/A103L/A169T/F76Y/H45Y/I96F/K41T/L162R/M171V/P40S/Q125H/Q178H/Q39Y/Q99D/R218S/R42G/S66Y/V115G/W38E); HLA-DR DRB3*0101 (DR52) (Homo sapiens, UniProt P01903+P79483).

Amino acid sequences for entries named in this document (tags omitted). A change or cut given only in a name is not applied to a line headed by its entry. Residues count along the entry.
UniProt P79483, 30-266: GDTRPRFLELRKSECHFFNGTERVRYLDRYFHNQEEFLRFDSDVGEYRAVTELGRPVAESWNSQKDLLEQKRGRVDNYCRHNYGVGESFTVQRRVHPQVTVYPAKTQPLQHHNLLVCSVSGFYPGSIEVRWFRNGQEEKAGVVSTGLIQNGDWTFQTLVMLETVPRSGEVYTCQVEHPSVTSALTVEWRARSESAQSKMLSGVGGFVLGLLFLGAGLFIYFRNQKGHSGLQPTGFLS
UniProt Q30154, 30-266: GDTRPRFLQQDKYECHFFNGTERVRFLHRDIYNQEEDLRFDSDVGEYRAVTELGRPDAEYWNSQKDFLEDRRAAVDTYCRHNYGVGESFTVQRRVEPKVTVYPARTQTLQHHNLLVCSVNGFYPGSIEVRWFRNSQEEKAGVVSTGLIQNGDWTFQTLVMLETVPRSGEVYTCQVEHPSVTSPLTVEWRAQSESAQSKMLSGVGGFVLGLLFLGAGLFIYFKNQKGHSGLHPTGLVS

Assay in all cases: biochemical
Holding throughout (type): binding

For a further assay, the target named is HLA-DR DRB1*0701 (DR7) (Homo sapiens, UniProt P01903+P01911, A100R/A102G/A103Q/D57E/D86V/E43K/F76Y/K127E/L162R/M171V/P40G/Q125H/Q99D/R33Q/R42Y/R54Q/S133A/S66F/T210M/V115G/Y107V/Y59L/Y89S). The conditions noted are these: DRB1 *0701.
A further assay has as its target HLA-DR DRB1*0401 (DR4) (Homo sapiens, UniProt P01903+P01911, A100K/A169T/F76Y/I96L/K127E/L162R/M171V/N62H/P40V/Q125Y/R42H/S133A/S149N/S66Y/V115G/V209L/W38E). The settings on record: DRB1 *0401.
The target in the next assay is HLA-DR DRB1*0101 (DR1) (Homo sapiens, UniProt P01903+P01911, A100R/D57E/F55L/F60I/F76Y/I96L/L162R/M171V/P40L/Q125E/R42F/V115G/Y59C). The settings on record: DRB1 *0101.
For the next assay, the target named is HLA-DR DRB1*0901 (DR9) (Homo sapiens, UniProt P01903+P01911, A100R/A103E/D57H/D86V/F55Y/F60I/F76Y/I96F/K127E/L162R/M171V/P40D/Q125H/Q99R/R33Q/R42F/S133A/S66N/T210M/V115G/W38K/Y107V/Y59G/Y89S). The conditions noted are these: DRB1 *0901.
For the next assay, the target named is HLA-DR DRB1*1302 (DR13) (Homo sapiens, UniProt P01903+P01911, A100E/A169T/K41T/L162R/M171V/P40S/Q125H/Q178H/Q39Y/Q99D/R42S/S66N/T262R/V115G/W38E/Y61H). The conditions noted are these: DRBI *1302.
For the next assay, the target named is HLA-DR DRB4*0101 (DR53) (Homo sapiens, UniProt P01903+P13762, G164S). The conditions noted are these: DRB4 *0101.
Another assay deals with HLA-DR DRB1*1101 (DR11) (Homo sapiens, UniProt P01903+P01911, A100R/A169T/A87E/I96F/K41T/L162R/M171V/P40S/Q125H/Q178H/Q39Y/Q99D/R42S/S66Y/T262R/V115G/W38E). The settings on record: DRB1 *1101.
In another assay the target is HLA-DR DRB5*0101 (DR51) (Homo sapiens, UniProt P01903+Q30154). The conditions noted are these: read-out: DRB5 *0101.

Where two headings read alike, the source gives them in different places.

In turn, `CC[C@H](C)[C@H](NC(=O)[C@@H](NC(=O)[C@H](CC(C)C)NC(=O)[C@H](CC(=O)O)NC(=O)[C@@H](NC(=O)[C@H](Cc1ccccc1)NC(=O)[C@H](C)NC(=O)[C@@H](N)Cc1ccccc1)[C@@H](C)O)[C@@H](C)O)C(=O)N[C@H](C(=O)N[C@@H](Cc1ccc(O)cc1)C(=O)O)C(C)C` came in with an IC50 on HLA-A*0301 of 40.3 µM.
The molecule `CC(C)C[C@H](NC(=O)[C@H](C)NC(=O)[C@H](CCC(=O)O)NC(=O)CN)C(=O)N[C@@H](CO)C(=O)N[C@H](C(=O)N[C@@H](CC(C)C)C(=O)N[C@H](C(=O)N[C@@H](CC(C)C)C(=O)N[C@@H](CC(N)=O)C(=O)N[C@@H](CCCNC(=N)N)C(=O)N[C@@H](CC(C)C)C(=O)N[C@@H](CCCCN)C(=O)N[C@H](C(=O)NCC(=O)O)C(C)C)C(C)C)[C@@H](C)O` gave an IC50 at HLA-DR DRB1*1501 (DR15) (DRBI *1501) of 0.269 µM.
On to `CC(C)C[C@H](NC(=O)CN)C(=O)N[C@@H](CCCNC(=N)N)C(=O)N[C@@H](CO)C(=O)N[C@@H](CC(C)C)C(=O)N[C@H](C(=O)N[C@H](C(=O)N[C@@H](CC(C)C)C(=O)N[C@@H](CC(C)C)C(=O)N[C@@H](CCCNC(=N)N)C(=O)N[C@@H](C)C(=O)N[C@@H](CC(C)C)C(=O)NCC(=O)N[C@@H](C)C(=O)N[C@@H](CCC(N)=O)C(=O)O)[C@@H](C)O)[C@@H](C)O`, for which the values for the IC50 against HLA-DR DRB1*0701 (DR7) and against HLA-DR DRB1*1501 (DR15) (DRBI *1501) were 0.509 µM and 0.0062 µM, respectively.
As for `CC(C)C[C@H](NC(=O)[C@@H]1CCCN1C(=O)[C@H](Cc1c[nH]cn1)NC(=O)[C@@H]1CCCN1C(=O)[C@H](Cc1ccccc1)NC(=O)[C@H](CO)NC(=O)[C@H](Cc1c[nH]cn1)NC(=O)[C@H](CO)NC(=O)[C@@H](NC(=O)[C@@H]1CCCN1C(=O)[C@@H](NC(=O)[C@H](CCCNC(=N)N)NC(=O)[C@H](CCC(N)=O)NC(=O)CN)C(C)C)C(C)C)C(=O)N[C@@H](Cc1ccc(O)cc1)C(=O)O`, the IC50 against HLA-DR DRB1*1501 (DR15) (DRBI *1501) was found to be 3.96 µM.
The molecule `C[C@@H](O)[C@H](NC(=O)CN)C(=O)N[C@@H](CCCNC(=N)N)C(=O)N[C@@H](CCC(N)=O)C(=O)N[C@H](C(=O)N[C@@H](CCCNC(=N)N)C(=O)N[C@@H](CCCCN)C(=O)N[C@@H](CC(N)=O)C(=O)N[C@@H](CCCCN)C(=O)O)[C@@H](C)O` showed an IC50 at HLA-A*0301 of 0.198 µM.
In the case of `CC[C@H](C)[C@H](N)C(=O)N[C@@H](C)C(=O)N[C@@H](CC(C)C)C(=O)N[C@@H](CC(C)C)C(=O)N[C@H](C(=O)N[C@H](C(=O)N1CCC[C@H]1C(=O)N1CCC[C@H]1C(=O)N[C@@H](CCCCN)C(=O)O)[C@@H](C)CC)[C@@H](C)CC`, the IC50 at HLA-A*0301 turned out to be 1.24 µM.
`CC[C@H](C)[C@H](N)C(=O)N[C@@H](Cc1ccc(O)cc1)C(=O)N[C@@H](CO)C(=O)N[C@H](C(=O)N[C@@H](CO)C(=O)N[C@@H](CCSC)C(=O)N[C@@H](CCCCN)C(=O)N[C@@H](Cc1c[nH]cn1)C(=O)N1CCC[C@H]1C(=O)N[C@@H](CCC(N)=O)C(=O)N[C@@H](CCC(=O)O)C(=O)N[C@@H](CCSC)C(=O)N[C@@H](CCCCN)C(=O)N[C@H](C(=O)N[C@@H](Cc1ccc(O)cc1)C(=O)O)[C@@H](C)O)[C@@H](C)CC`: the IC50 against HLA-DR DRB1*1501 (DR15) (DRBI *1501) was found to be 5.03 µM.
`CC(C)C[C@H](NC(=O)[C@H](C)NC(=O)CNC(=O)[C@H](C)NC(=O)[C@H](CS)NC(=O)[C@H](CC(C)C)NC(=O)[C@H](Cc1c[nH]c2ccccc12)NC(=O)[C@H](CCCNC(=N)N)NC(=O)[C@@H]1CCCN1)C(=O)N[C@H](C(=O)N[C@@H](CC(C)C)C(=O)N[C@@H](C)C(=O)NCC(=O)NCC(=O)N[C@@H](Cc1ccccc1)C(=O)O)C(C)C` displayed an IC50 against HLA-DR DRB1*1501 (DR15) (DRBI *1501) of 15.2 µM.
Turning to `CC[C@H](C)[C@H](NC(=O)[C@H](Cc1ccc(O)cc1)NC(=O)[C@H](C)NC(=O)[C@H](CCC(=O)O)NC(=O)[C@H](CCC(=O)O)NC(=O)[C@H](Cc1ccccc1)NC(=O)[C@H](CCC(=O)O)NC(=O)[C@@H](N)CCC(N)=O)C(=O)N1CCC[C@H]1C(=O)N[C@@H](CCCCN)C(=O)N[C@@H](CCC(=O)O)C(=O)N[C@@H](CCC(N)=O)C(=O)N[C@@H](CCCCN)C(=O)N[C@@H](Cc1ccc(O)cc1)C(=O)N[C@@H](CO)C(=O)O`, the IC50 against HLA-DR DRB1*0701 (DR7) was 31.3 µM; on HLA-DR DRB1*0401 (DR4), over 21.3 µM; against HLA-DR DRB1*0101 (DR1), over 20.5 µM; against HLA-DR DRB1*0301 (DR3) it was over 172 µM; on HLA-DR DRB1*0802 (DR8), over 33.3 µM; on HLA-DR DRB3*0101 (DR52), over 54.6 µM. Further, the IC50 was over 15.6 µM against HLA-DR DRB1*1501 (DR15) (DRBI *1501), over 59.5 µM on HLA-DR DRB1*0901 (DR9), over 15.8 µM against HLA-DR DRB1*1302 (DR13) and over 41.1 µM at HLA-DR DRB4*0101 (DR53).
`CC[C@H](C)[C@H](NC(=O)CNC(=O)[C@H](CC(C)C)NC(=O)CNC(=O)[C@H](CCCCN)NC(=O)[C@H](CCCCN)NC(=O)[C@H](CC(C)C)NC(=O)[C@H](Cc1ccccc1)NC(=O)[C@H](CS)NC(=O)[C@H](CC(C)C)NC(=O)[C@@H](N)CCC(N)=O)C(=O)N[C@@H](CO)C(=O)N[C@@H](Cc1ccc(O)cc1)C(=O)NCC(=O)N[C@@H](CCCNC(=N)N)C(=O)O` showed an IC50 against HLA-DR DRB1*1501 (DR15) of 4.21 µM.
As for `CC(C)[C@H](NC(=O)[C@H](CCC(=O)O)NC(=O)[C@H](Cc1ccccc1)NC(=O)[C@@H](N)CCCNC(=N)N)C(=O)N[C@@H](Cc1ccc(O)cc1)C(=O)N[C@@H](CCC(N)=O)C(=O)N[C@@H](Cc1ccccc1)C(=O)N[C@@H](C)C(=O)N[C@@H](Cc1ccccc1)C(=O)N[C@@H](CCCCN)C(=O)O`, on HLA-A*0301, the IC50 came to 0.038 µM.
The molecule `CC[C@H](C)[C@H](NC(=O)[C@H](CCC(N)=O)NC(=O)[C@@H](N)CCCNC(=N)N)C(=O)N[C@@H](Cc1ccc(O)cc1)C(=O)N[C@H](C(=O)N[C@@H](C)C(=O)N[C@@H](C)C(=O)N[C@@H](Cc1ccccc1)C(=O)N[C@H](C(=O)N[C@H](C(=O)N[C@@H](CCC(N)=O)C(=O)N[C@@H](C)C(=O)N[C@@H](C)C(=O)N[C@@H](C)C(=O)N[C@@H](CCC(=O)O)C(=O)O)C(C)C)[C@@H](C)O)C(C)C` had an IC50 against HLA-DR DRB1*1501 (DR15) (DRBI *1501) of 0.166 µM.
On to `CC[C@H](C)[C@H](NC(=O)[C@H](CC(=O)O)NC(=O)[C@@H](NC(=O)[C@H](Cc1c[nH]cn1)NC(=O)[C@@H](NC(=O)[C@H](CO)NC(=O)[C@H](CCC(N)=O)NC(=O)[C@@H](NC(=O)[C@H](CS)NC(=O)[C@H](CC(C)C)NC(=O)[C@H](CCCNC(=N)N)NC(=O)[C@H](CC(C)C)NC(=O)[C@@H](N)[C@@H](C)O)C(C)C)[C@@H](C)O)C(C)C)C(=O)N[C@@H](CCCNC(=N)N)C(=O)N[C@H](C(=O)O)[C@@H](C)O`, for which the IC50 against HLA-DR DRB1*1501 (DR15) (DRBI *1501) came to 3.96 µM.
As to `CC[C@H](C)[C@H](NC(=O)[C@@H](NC(=O)[C@H](CCCCN)NC(=O)[C@@H](N)Cc1ccc(O)cc1)[C@@H](C)O)C(=O)N[C@@H](C)C(=O)N[C@@H](Cc1ccc(O)cc1)C(=O)N[C@@H](CC(=O)O)C(=O)N[C@@H](CCC(=O)O)C(=O)N[C@@H](CCC(=O)O)C(=O)N[C@@H](C)C(=O)N[C@@H](CCCNC(=N)N)C(=O)N[C@@H](CCCNC(=N)N)C(=O)O`, the IC50 was at least 200 µM against HLA-DR DRB1*1101 (DR11), at least 50 µM at HLA-DR DRB1*0101 (DR1) and over 91 µM on HLA-DR DRB1*1501 (DR15) (DRBI *1501).
For the molecule `CC(C)C[C@H](NC(=O)[C@H](C)NC(=O)[C@H](CCC(=O)O)NC(=O)[C@@H](NC(=O)[C@H](CC(C)C)NC(=O)[C@H](CC(=O)O)NC(=O)[C@H](CO)NC(=O)CNC(=O)[C@H](CS)NC(=O)[C@H](CC(C)C)NC(=O)[C@H](Cc1c[nH]cn1)NC(=O)[C@H](CCC(N)=O)NC(=O)[C@H](CC(N)=O)NC(=O)[C@@H](NC(=O)[C@@H](N)Cc1ccccc1)C(C)C)C(C)C)C(=O)O` [FVNQHLCGSDLVEAL], at HLA-DR DRB1*1501 (DR15) (DRBI *1501), the IC50 came out at 9.68 µM.
As to ATAGDGXXEXRK, the IC50 with HLA-A*0301 (read-out: A*0301 binding affinity (IC50)) was determined as 0.184 µM.
As to DRTLMSAMTNLAALF, the IC50 on HLA-DR DRB1*1501 (DR15) (read-out: DRBI *1501) was determined as 0.871 µM.
On to KKPLNEILIRCHCQ, for which the IC50 is 1.87 µM on HLA-DR DRB1*1501 (DR15) (read-out: DRBI *1501) and 26.3 µM at HLA-DR DRB5*0101 (DR51).
With VAQVRGGNIVFELANS, at HLA-DR DRB1*1501 (DR15) (read-out: DRBI *1501), the IC50 is 0.117 µM.
As for WTTCQSIAFPSKTSASIGSL, the IC50 at HLA-DR DRB1*1501 (DR15) (read-out: DRBI *1501) was 0.277 µM.

The values are drawn from US20060079453A1, “Hla binding peptides and their uses” (priority 2002, published 2006).
